Results: article PMC7264150 (Nature Communications, 2020)

Target: Pl-TcdA1 (Photorhabdus luminescens, UniProt Q9RN43)
Assay: glycan microarray, AlexaFluor488-labelled toxin
Assay type: binding
Conditions: glycan immobilised via amine linker; pH 7.4, 200 mM NaCl

CC(=O)N[C@H]1[C@H]([C@H](O)[C@H](O)CO)O[C@@](O[C@H]2[C@@H](O)[C@@H](CO)O[C@@H](O[C@H]3[C@H](O[C@@H]4O[C@@H](C)[C@@H](O)[C@@H](O)[C@@H]4O)[C@@H](NC(C)=O)C(O)O[C@@H]3CO)[C@@H]2O)(C(=O)O)C[C@@H]1O (stereo partly shown)
glycan microarray, AlexaFluor488-labelled toxin: tetrasaccharides Lewis Y and sialyl-Lewis X interacted strongly with Pl-TcdA1
